Experimental data taken from patent US20260382562A1, “ALLOSTERIC CHROMENONE INHIBITORS OF PHOSPHOINOSITIDE 3-KINASE (PI3K) FOR THE TREATMENT OF DISEASE” (published 2026).

How the values were obtained:
[1] = physical stability of Tromethamine Salt Form D (VT-XRPD); conditions: RT
[2] = particle size analysis (D90 Measurements); conditions: pin milled
[3] = test system: HR+/HER2− PIK3CA-mutant advanced or metastatic breast cancer patients; conditions: cited from earlier work
[4] = test system: wild-type (WT) and mutated PI3Kα; conditions: WT vs mutated PI3Kα; cited from earlier work
[5] = test system: CAL-148, PI3Ka H1047R & D350N+/−, triple negative breast cancer xenograft; test: In Vivo Combination Study in CAL148 TNBC tumor model in mice (Example 16); conditions: 14 days
[6] = test system: CTG-1260 PIK3CA H1047R/D350G+/− ESR1 D538G+/− breast cancer PDX; test: In Vivo Tumor Growth Inhibition Study in ER+HER2 ESR1 D538G+/− breast cancer PDX (CTG-1260) in mice (Example 15); conditions: 56 days, as estimated in the model of each combination; for Mean Tumor Volume (single agent): Compound A 75 mg/kg BID p.o., abemaciclib 50 mg/kg QD p.o., imlunestrant 5 mg/kg QD p.o., fulvestrant 5 mg/animal Q7D i.v.; for Percent Response (D[T/C] % or Reg %), single agent: Compound A 75 mg/kg BID, abemaciclib 50 mg/kg QD, imlunestrant 5 mg/kg QD, fulvestrant 5 mg/animal Q7D, negative = regression
[7] = test system: T47D abemaciclib resistant cells; test: In Vitro Cell Proliferation Assay, T47D abemaciclib resistant; conditions: read-out: absolute IC50 (cell proliferation), FBS adjusted, n = 4, 2 cell doubling times
T47D Parental cells = test: In Vitro Cell Proliferation Assay, T47D Parental; conditions: read-out: absolute IC50 (cell proliferation), FBS adjusted, n = 4, 2 cell doubling times
T47D ESR1 D538+/+ cells = test: In Vitro Cell Proliferation Assay, T47D ESR1 D538+/+; conditions: read-out: absolute IC50 (cell proliferation), FBS adjusted, n = 4, 2 cell doubling times
[8] = test system: T-47D ER-positive, PI3Ka H1047R−/+ breast cancer xenograft; test: In Vivo Combination Study in ER-Positive T-47D breast cancer xenograft in mice, everolimus/fulvestrant (Example 17); conditions: 28 days, as estimated in the model of each combination, Compound A 37.5 mg/kg BID p.o., everolimus 5 mg/kg QD p.o., fulvestrant 5 mg/animal Q7D i.v.
[9] = test system: T47D abemaciclib/fulvestrant resistant cells; test: In Vitro Cell Proliferation Assay, T47D abemaciclib/fulvestrant resistant; conditions: read-out: absolute IC50 (cell proliferation), FBS adjusted, n = 4, 2 cell doubling times
T47D ESR1 E538+/− cells = test: In Vitro Cell Proliferation Assay, T47D ESR1 E538+/−; conditions: read-out: absolute IC50 (cell proliferation), FBS adjusted, n = 4, 2 cell doubling times
[10] = test system: T-47D ER-positive, PI3Ka H1047R−/+ breast cancer xenograft; test: In Vivo Combination Study in ER-Positive T-47D breast cancer xenograft in mice (Example 14); conditions: 28 days, as estimated in the model of each combination; for Mean Tumor Volume (single agent): Compound A 37.5 mg/kg BID p.o., abemaciclib 50 mg/kg QD p.o., imlunestrant 5 mg/kg QD p.o., fulvestrant 5 mg/animal Q7D i.v.; for Percent Response (D[T/C] % or Reg %), single agent: Compound A 37.5 mg/kg BID, abemaciclib 50 mg/kg QD, imlunestrant 5 mg/kg QD, fulvestrant 5 mg/animal Q7D, negative = regression
[11] = test system: patients with heavily pretreated, ER+HER2− advanced breast cancer; conditions: Phase 1, monotherapy; cited from earlier work

| SMILES | Mean Tumor Volume (single agent) [6] | Percent Response (D[T/C] % or Reg %), single agent [6] | IC50 [7] | IC50 (T47D Parental cells) | IC50 (T47D ESR1 D538+/+ cells) | Mean Tumor Volume (single agent) [8] | IC50 [9] | IC50 (T47D ESR1 E538+/− cells) | Mean Tumor Volume (single agent) [10] | Percent Response (D[T/C] % or Reg %), single agent [10] | other results |
| --- | --- | --- | --- | --- | --- | --- | --- | --- | --- | --- | --- |
| Cc1cc([C@@H](C)Nc2ccccc2C(=O)O)c2oc(-c3ccccc3)c(C)c(=O)c2c1 |  |  |  |  |  |  |  |  |  |  | physical stability (conversion to Form A) [1]: conversion to Form A occurs within minutes at RT; D90 Measure ([2]; Material Lot A): 18 micrometers; D90 Measure ([2]; Material Lot B): 19 micrometers; D90 Measure ([2]; Material Lot C): 19 micrometers; D90 Measure ([2]; Material Lot D): 22 micrometers |
| Cc1nc(NC(=O)N2CCC[C@H]2C(N)=O)sc1-c1ccnc(C(C)(C)C(F)(F)F)c1 |  |  |  |  |  |  |  |  |  |  | most frequent AEs leading to discontinuation ([3]; SOLAR-1): hyperglycemia and rash; participants who discontinued due to AEs ([3]; SOLAR-1): 25.0%; relative potency on WT and mutated PI3Kα (in words) [4]: approximately equal potency |
| CC(=O)O[C@H]1C(=O)[C@@]2(C)[C@H]([C@H](OC(=O)c3ccccc3)[C@]3(O)C[C@H](OC(=O)[C@H](O)[C@@H](NC(=O)c4ccccc4)c4ccccc4)C(C)=C1C3(C)C)[C@]1(OC(C)=O)CO[C@@H]1C[C@@H]2O |  |  |  |  |  |  |  |  |  |  | Mean Tumor Volume (single agent) ([5]; paclitaxel 10 mg/kg QW i.v.): 1847.9 mm^3; Percent Response (D[T/C] % or Reg %), single agent ([5]; paclitaxel 10 mg/kg QW i.v.): 67.6%; Mean Tumor Volume (single agent) ([5]; paclitaxel 15 mg/kg QW i.v.): 1187.8 mm^3; Mean Tumor Volume (single agent) ([5]; paclitaxel 20 mg/kg QW i.v.): 1119.0 mm^3 |
| C[C@]12CC[C@@H]3c4ccc(O)cc4C[C@@H](CCCCCCCCC[S+]([O-])CCCC(F)(F)C(F)(F)F)[C@H]3[C@@H]1CC[C@@H]2O (stereo partly shown) | 671.0 mm^3 | 37.8% and 36.1% and 38.4% | 19.4 nM | 0.02 nM | 0.08 nM | 411.8 mm^3 | 32.1 nM | 0.03 nM | 413.3 mm^3 | 26.6% and 27.9% and 27.1% | progression-free survival ([3]; Phase 3, SOLAR-1): 5.7 months; adverse event: decreased appetite ([3]; participants, SOLAR-1): 10.5%; adverse event: diarrhea ([3]; participants, SOLAR-1): 15.7%; adverse event: hyperglycemia ([3]; participants, SOLAR-1): 9.8%; adverse event: nausea ([3]; participants, SOLAR-1): 22.3%; adverse event: rash ([3]; participants, SOLAR-1): 5.9% |
| CO[C@H]1C[C@@H]2CC[C@@H](C)[C@@](O)(O2)C(=O)C(=O)N2CCCC[C@H]2C(=O)O[C@H]([C@H](C)C[C@@H]2CC[C@@H](OCCO)[C@H](OC)C2)CC(=O)[C@H](C)/C=C(\C)[C@@H](O)[C@@H](OC)C(=O)[C@H](C)C[C@H](C)/C=C/C=C/C=C/1C |  |  |  |  |  | 408.0 mm^3 |  |  |  |  |  |
| Oc1ccc2c3c(cnc2c1)-c1ccc(C(F)(F)F)cc1O[C@@H]3c1ccc(OCCN2CC(CF)C2)cc1 | 384.8 mm^3 | 11.8% and 12.9% and 12.6% | 31 nM | 0.16 nM | 0.46 nM |  | 31.2 nM | 0.4 nM | 370.9 mm^3 | 17.2% and 19.5% and 17.7% | anti-tumor activity (in words) [11]: encouraging anti-tumor activity; safety profile (in words) [11]: favorable safety profile |

Values joined by “and” are separate entries in the source; they are usually repeats but may differ in a detail not shown here. Identical values can stand only once.
